The results in this text go back to patent US9902728B2, “Pyrrolo and pyrazolopyrimidines as ubiquitin-specific protease 7 inhibitors” (Forma Therapeutics, Inc., priority 2014, dated 2018).

The chains behind the UniProt entries cited, without tags or fusion partners. Residues count along the entry.
UniProt Q93009, 208-1102 limits assumed: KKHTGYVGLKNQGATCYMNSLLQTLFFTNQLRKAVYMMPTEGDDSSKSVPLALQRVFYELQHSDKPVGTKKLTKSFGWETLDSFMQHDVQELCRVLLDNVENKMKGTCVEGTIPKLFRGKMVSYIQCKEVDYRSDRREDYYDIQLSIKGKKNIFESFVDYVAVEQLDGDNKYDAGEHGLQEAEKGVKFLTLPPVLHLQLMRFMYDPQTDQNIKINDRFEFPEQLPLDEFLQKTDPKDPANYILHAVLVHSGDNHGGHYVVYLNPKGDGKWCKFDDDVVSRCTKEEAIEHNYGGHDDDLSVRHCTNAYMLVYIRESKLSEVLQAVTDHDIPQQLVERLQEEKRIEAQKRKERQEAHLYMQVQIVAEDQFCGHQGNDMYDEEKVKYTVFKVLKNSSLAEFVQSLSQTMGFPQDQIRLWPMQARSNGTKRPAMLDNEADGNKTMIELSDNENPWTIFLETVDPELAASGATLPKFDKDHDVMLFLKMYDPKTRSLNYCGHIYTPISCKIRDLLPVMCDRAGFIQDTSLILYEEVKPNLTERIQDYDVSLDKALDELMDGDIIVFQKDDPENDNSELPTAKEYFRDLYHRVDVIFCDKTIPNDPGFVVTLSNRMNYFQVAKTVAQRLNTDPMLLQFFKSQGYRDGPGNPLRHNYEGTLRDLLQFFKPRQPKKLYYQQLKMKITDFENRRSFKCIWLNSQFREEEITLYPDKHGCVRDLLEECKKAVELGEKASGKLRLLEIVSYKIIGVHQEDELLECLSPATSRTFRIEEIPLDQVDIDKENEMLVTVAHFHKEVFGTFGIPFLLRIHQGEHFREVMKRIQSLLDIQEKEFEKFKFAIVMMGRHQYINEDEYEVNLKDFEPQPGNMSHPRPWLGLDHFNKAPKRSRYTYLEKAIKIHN

The assay deals with USP7 (Homo sapiens, UniProt Q93009). In words: USP7 Assay A (Ubitquin-Rhodamine 110 Assay). The following applies: read-out: USP7_IC50; USP7 activity in USP7 assay A and B (table does not say which assay per compound).

In the case of `O=C(N1CCC(O)(Cn2cnc3c(cnn3-c3ccc(F)cc3)c2=O)CC1)N1CCC1Cc1ccccc1` (centres unmarked), the IC50 is 1000 to 10000 nM.
As for `COC1CCC(Oc2ccc(-n3ncc4c(=O)n(CC5(O)CCN(C(=O)C6(C)CC6)CC5)cnc43)cc2)CC1` (single isomer, unassigned) [Compounds I-1116], the IC50 is 200 to 1000 nM.
